From patent US10513524B2, “PDE9 inhibitors with imidazo triazinone backbone and imidazo pyrazinone backbone for treatment of peripheral diseases” (H. LUNDBECK A/S, priority 2015, dated 2019)

Settings: male CD mice, subcutaneous 10 mg/kg

Plasma concentration after 30 minutes (30 min): 1230 ng/mL | Plasma concentration after 120 minutes (120 min): 529 ng/mL
Structure (SMILES): C[C@@H]1CN(Cc2ncccn2)C[C@H]1c1nc2c(cnn2C2CCOCC2)c(=O)[nH]1 (single isomer, unassigned) [Reference compound, reference compound]
